For experiment [1], the system named is Human breast carcinoma cell line MCF-7. Briefly: SRB cytotoxicity assay, MCF-7. The following applies: read-out: IC50 (nM) MCF-7; Table 2; as described in Example 48. Type of experiment: cell-based. How it is done: (§1) Compounds of the invention may be screened for cytotoxicity using conventional assays well known to those skilled in the art. For example, cytotoxicity of the compounds may be determined by the SRB assay as disclosed in Skehan et al., J. Natl. Cancer Inst. 82:1107-1112 (1990), which is incorporated herein by reference. In the SRB assay, the following cultured cells are trypsinized, counted and diluted to the following concentrations per 100 μl with growth medium: MCF-7, 5000; NCI/ADR-Res, 7500; NCI-H460, 5000; A549, 5000; Skov3, 7500; and SF-268, 7500. The cells are seeded at 100 μl/well in 96-well microtiter plates. […] The amount of bound dye is determined by OD 515 nm, which correlates to the total cellular protein contents. The data is analyzed using standard statistical methodologies (such as those available with the software sold as KALEIDA GRAPH® by Synergy Software of Reading, Pa.) and the IC50s are calculated. […]
(§2) Tumor cells were seeded in 100 μl at 5000 (MCF-7), 7500 (NCI/ADR), 5000 (A549) and 7500 (SKOV3) cells per well in 96-well plates. […] The absorbance was measured at 515 nm using a 96-well microtiter plate reader (Spectra Max 250, Molecular Devices). The IC50 values were calculated using a KaleidaGraph program. […]

For experiment [2], the system named is multi-drug resistant breast carcinoma cell line NCI/ADR. As to the kind of experiment: SRB cytotoxicity assay, NCI/ADR. Type of experiment: cell-based, human. Particulars: read-out: IC50 (nM) NCI/ADR; Table 2; as described in Example 48. How it is done:
as §1, §2
On the technique in general: Sulforhodamine B stains cellular protein and so reports cell mass.

For experiment [3], the system named is Human non-small cell lung cancer cell line A549. As to the kind of experiment: SRB cytotoxicity assay, A549. The format is cell-based. The following applies: read-out: IC50 (nM) A549; Table 2; as described in Example 48. How it is done:
as §1, §2

Experiment [4] concerns human ovarian cancer cell line SKOV-3. As to the kind of experiment: SRB cytotoxicity assay, SKOV3. The following applies: read-out: IC50 (nM) Skov; Table 2; as described in Example 48. Type of experiment: cell-based. The method, then: as §1, §2

SMILES strings stand for the structures.

For `C/C(=C\c1ccccn1)[C@@H]1C/C=C(/C(F)(F)F)C/C=C/[C@H](C)[C@H](O)[C@@H](C)C(=O)C(C)(C)[C@@H](O)CC(=O)O1`, the IC50 in experiment [1] amounted to 4.3 nM; in experiment [2], 19 nM; in experiment [3], 15 nM; in experiment [4] it was 9.6 nM.
